Experimental data taken from US20130089641A1.

Assays:
[1] = fourth experiment: releasable iron in soymilk with 50 ppm ferric pyrophosphate and VC, NaVC, KVC or CaVC additive; details: soymilk with 50 ppm iron as ferric pyrophosphate
[2] = second experiment: releasable iron in soymilk with iron salts added by concentration gradients

## ferric pyrophosphate
[1]
  releasable iron concentration before adding the ascorbic acid iron: 1.22 ppm
  the most effective additive dosage for ascorbic acid iron: 100 mg/100 ml
[1]; after/before adding the ascorbic acid iron
  release promoting rate of iron: 561%
[1]; at the most effective additive dosage 100
  releasable iron concentration after adding the ascorbic acid iron: 6.98 ppm
[2]; additive dosage of iron 30 ppm
  concentration of releasable iron: 1.09 ppm
[2]; additive dosage of iron 50 ppm
  concentration of releasable iron: 1.22 ppm
[2]; additive dosage of iron 75 ppm
  concentration of releasable iron: 1.66 ppm
[2]; point where releasable iron starts to rise with additive dosage
  initially inhibiting concentration: 50 ppm
